The test concerns the target human LTA4 hydrolase (Homo sapiens, UniProt P09960). The test can be described thus: In vitro assay testing inhibitory activity against purified recombinant human LTA4 hydrolase. The settings on record: read-out: IC50(μM) (hLTA4H); 200 nM recombinant enzyme, 2 μM LTA4, LTB4 by LC-MS/MS. An excerpt: (1) In vitro Assay Testing Inhibitory Activity Against Purified Recombinant Human LTA4 Hydroase:
A human LTA4 hydrolase full-length cDNA clone (NM_000895) was purchased from OriGene Technologies (Rockville, Md.). The gene was amplified by polmerase chain reaction and transferred via pDONR201 into the bacterial expression vector pDEST17 by recombination (both plasmids from Invitrogen, Carlsbad, Calif.). The resulting construct was transformed into Escherichia coli BL21-AI (Invitrogen), and expression was induced by chemical induction with arabinose. […]
Immediately before the assay, LTA4 was diluted to a concentration of 10 μM in assay buffer (without DMSO) and added to the reaction mixture to a final concentration of 2 μM to initiate the enzyme reaction. […] LTB4 formed was measured by LC-MS/MS using LTB4-d4 as an internal standard and an external LTB4 standard (Biomol) as reference. Briefly, the analyte was separated from LTB4 isomers formed by spontaneous hydrolysis of LTA4 using isocratic elution (modified protocol from Mueller et al. (1996), J. Biol. Chem. 271, 24345-24348) on a HPLC system (Waters, Milford, Mass.) and analyzed on a tandem quadrupole mass spectrometer (Waters). […] Based on the amounts of LTB4 found at each inhibitor concentration, a dose-response curve was fitted to the data and an IC50 value was calculated.

The chains behind the UniProt entries cited, without tags or fusion partners.
UniProt P09960, whole entry: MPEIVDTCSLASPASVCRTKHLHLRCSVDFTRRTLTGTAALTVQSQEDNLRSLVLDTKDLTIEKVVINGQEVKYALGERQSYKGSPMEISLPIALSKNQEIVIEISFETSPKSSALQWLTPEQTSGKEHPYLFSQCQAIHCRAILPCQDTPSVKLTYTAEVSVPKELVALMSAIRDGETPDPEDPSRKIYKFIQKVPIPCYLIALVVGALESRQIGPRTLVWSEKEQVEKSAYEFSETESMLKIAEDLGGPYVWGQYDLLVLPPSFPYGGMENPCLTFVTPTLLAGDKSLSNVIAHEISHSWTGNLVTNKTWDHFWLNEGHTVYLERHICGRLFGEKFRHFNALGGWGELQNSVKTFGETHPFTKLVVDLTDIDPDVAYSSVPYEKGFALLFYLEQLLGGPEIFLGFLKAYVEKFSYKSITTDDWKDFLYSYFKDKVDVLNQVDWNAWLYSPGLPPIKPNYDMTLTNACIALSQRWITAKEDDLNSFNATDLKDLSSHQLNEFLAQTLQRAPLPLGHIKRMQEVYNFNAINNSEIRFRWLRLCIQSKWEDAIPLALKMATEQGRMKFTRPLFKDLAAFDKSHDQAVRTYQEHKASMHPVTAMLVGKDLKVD

SMILES strings stand for the structures. A value given as a limit tells only on which side of the number the result lay.

As a reminder, the IC50 is the midpoint of a concentration-inhibition curve. In the case of `NC(=O)CCCN1CC[C@@H](Oc2ccc(Cc3ccccc3)cc2)C1`, the IC50 is under 5 µM.
